Apparent affinities of Ab-14 variants for a coronavirus HR2 peptide

The measurements come from Li et al. 2023 (doi:10.1038/s41467-023-39022-2) through the FLAb antibody collection.

Target peptide (SARS-CoV-2 spike, HR2 region): PDVDLGDISGINAS

Parent: Ab-14, a human scFv built as VH, three GGGGS repeats, VL. Only the CDRs of the light chain vary.
VH: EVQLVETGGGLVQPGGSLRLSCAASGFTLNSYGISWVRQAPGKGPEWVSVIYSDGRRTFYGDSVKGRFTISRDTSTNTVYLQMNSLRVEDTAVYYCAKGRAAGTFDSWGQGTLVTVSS
VL: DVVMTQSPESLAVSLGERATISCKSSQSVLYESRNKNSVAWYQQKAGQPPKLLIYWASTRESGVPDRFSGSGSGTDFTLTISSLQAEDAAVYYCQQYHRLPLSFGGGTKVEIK

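Phage display of a naive human antibody library on the peptide gave the parent. These sequences belong to a second round, designed from the earlier measurements on random variants of the parent. Group labels follow the data file (Ctrl: baseline library sampled from a position-specific scoring matrix, with some repeated check sequences; Rand: our label for a block that the file lists under HC and that is probably the random mutants of the ten best first-round binders; En: ensemble of fine-tuned language models; GP: Gaussian process model; HC: hill climbing; Gen: genetic algorithm; Gibbs: Gibbs sampling; a sequence that several methods proposed may carry one label only). Affinity was read by AlphaSeq, a pooled yeast mating assay with surface-displayed partners. After mating in shaken culture at 30 °C for 16 h, diploids were selected and their barcode pairs sequenced. The ratio of observed to expected reads was calibrated, replicate by replicate, on BCL2-family standards whose Kd was known from biolayer interferometry. There are six technical replicates.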

Variants are written as CDR1, CDR2 and CDR3 of the light chain (limits as in the source). Parent: KSSQSVLYESRNKNSVA, WASTRES, QQYHRLPLS.
Scale: log10 of Kd in nM, estimated from mating counts; low values are strong binders.
A mean of the replicates is given; it leaves out those without a signal.
"nd" marks a missing value. The strain was present, yet no cells mated with the target were sequenced in any replicate, which points to weak or no binding.
As a blank, each scFv also met three strains without target: over all light chain designs, 4% of these pairings were detected, typically at 2.64 and seldom below 1.59.
The authors' rule: three or more of the six replicates give a measured affinity, fewer mean a poor binder.
Of ten entries with the parent sequence, four were seen in most replicates (averages 0.34 to 2.37), three in one and three in none, so single entries are noisy.
Values of this round are not directly comparable with the first-round values of the same sequences.

With KSSQSDLYESRVENSVA, WASKRES, QQYHRLPLS [Ctrl] the result was 1.16 (5 of 6 replicates).
With KISTQIPEFEMWDNAIA, GATLRET, QHYQRLPLS [En_Gibbs] the result was 1.93 (6 of 6 replicates).
With TISGIMNNAASKHNSVA, NVTMRPN, QQYHRLPLS [En_Gen] the result was 1.19 (6 of 6 replicates).
With TLSQMSGLEAVKHNSVA, ENSTREK, QQYDRLPLA [En_Gen] the result was nd (0 of 6 replicates).
With KLSGSVLYESRNKNAVA, NASTRES, QQYHRLPLS [GP_Gen] the result was -0.35 (6 of 6 replicates).
With HVHMECAEEKNKYYNIA, DASMRLA, QQYVRLPLG [En_Gibbs] the result was 0.67 (6 of 6 replicates).
With IIEQGEYEQEQHKNAIA, SGHERPR, QQYYKLPLV [En_Gibbs] the result was 0.67 (6 of 6 replicates).
With KLSMAYRYETEEKNSIA, ELVTRMS, QQYHRLPLS [En_HC] the result was 1.19 (6 of 6 replicates).
With KLQQESNNMNDMQNSVA, EESMVQY, QHYWRLPLT [En_Gibbs] the result was nd (0 of 6 replicates).
With KFSQMANTFSVSMNAVA, EMSTRES, QQYNRLPLA [En_Gen] the result was 1.08 (6 of 6 replicates).
With KMKQSIEGNPKNWNSVA, DVDSTIE, QQYARLPLF [En_Gibbs] the result was 0.26 (6 of 6 replicates).
With KSMQSVLYESRNKNSVA, SASTRES, QQYHRLPLS [Ctrl] the result was -0.04 (6 of 6 replicates).
With QISMSVGLTSFNKNSVA, ENSTREN, QQYDRLPLS [En_HC] the result was 2.78 (4 of 6 replicates).
With KSSQSDLYESRNKNSVA, WASTHES, QQYHSEPLS [Ctrl] the result was nd (0 of 6 replicates).
With KSSQSVLYESRNKNSVA, WASTREP, QAYHRLPLS [Ctrl] the result was 1.33 (4 of 6 replicates).
With KSSNSVLYESRNKNAVA, WASIREL, QQYHRLPLS [Ctrl] the result was 1.64 (5 of 6 replicates).
With KLQFSCEYESRNKNSVA, MASTRCV, QQYHRLPLS [GP_Gibbs] the result was 0.96 (6 of 6 replicates).
With HMNKFMSQIGGARNNVA, GDDTLAQ, QHYHRLPLS [En_Gibbs] the result was nd (0 of 6 replicates).
With KLSQSVLYESRNCNSVA, NASTRCS, QQYHRLPLS [GP_Gen] the result was 0.17 (6 of 6 replicates).
With KSSYSVLYESRNKNSVA, SASVRES, QQKHRLPLS [Ctrl] the result was 1.34 (6 of 6 replicates).
With MISQLYNFGTFAINSVA, QASLRCN, QQYDRLPLT [En_Gen] the result was 1.92 (4 of 6 replicates).
With KSSQSDLYESRNSNSVA, HASTREA, QQYHRLPLS [Ctrl] the result was 0.60 (6 of 6 replicates).
With QSSQLVLYESRNKNSVA, MASTRER, QQYHRLPLS [Ctrl] the result was 2.10 (2 of 6 replicates).
With KYSGSELGEQRNANSVA, NASTREE, QQYHRLPLS [GP_Gibbs] the result was 0.24 (6 of 6 replicates).
With KISQSVLYEQRAQNSVA, EASTRCD, QQYHRLPLS [GP_Gibbs] the result was 0.02 (6 of 6 replicates).
With KLYDEAFNRVGTATNIA, EKEISLQ, QQYDRLPLS [En_Gibbs] the result was 1.39 (6 of 6 replicates).
With KLPQSVLYESRNKNSVA, QASTRLS, QQYHRLPLS [GP_Gen] the result was 0.29 (6 of 6 replicates).
With KSLQSVLYESRNKNSVA, HASTRED, QAYDRLPLS [Rand] the result was 0.92 (6 of 6 replicates).
With KVSQSMPYESRNKNSVA, DASTRES, QQYHRLPLS [GP_Gen] the result was -0.10 (6 of 6 replicates).
With ILSQMLWTAGNKHNSVA, QANNRES, QQYHRLPLS [En_HC] the result was 1.77 (3 of 6 replicates).
With KVSQSHLYESRNKWSVA, NASTRES, QQYHRLPLS [GP_Gen] the result was 0.78 (6 of 6 replicates).
With KLTMITGLEKVHGNNVA, EMETRER, QQYNRLPLA [En_Gen] the result was 0.54 (5 of 6 replicates).
With KSSLSYLYESRNKNSVA, EASTRES, QQYHRLPLS [GP_HC] the result was 0.06 (6 of 6 replicates).

Excerpt, the first 2 entries:

| CDR-L1 | CDR-L2 | CDR-L3 | group | mean, log10 nM | replicates with signal |
|---|---|---|---|---|---|
| KSSQSDLYESRVENSVA | WASKRES | QQYHRLPLS | Ctrl | 1.16 | 5/6 |
| KISTQIPEFEMWDNAIA | GATLRET | QHYQRLPLS | En_Gibbs | 1.93 | 6/6 |